Source: US8022203B2, “Amino derivatives of beta-homoandrostanes and beta-heteroandrostanes” (Sigma-Tau Industrie Farmaceutiche Riunite S.p.A., priority 2006, dated 2011)

Target: Na^+,K^+-ATPase (Canis lupus familiaris, UniProt P50997)
Assay: Dog kidney Na+,K+-ATPase inhibition (hydrolysis of 32P-ATP)
Format: biochemical
Conditions: read-out: Na^+,K^+-ATPase Inhibition IC50; dog kidney enzyme

SMILES	IC50 [µM]
CC12CCC3C(CC(=NO)NC4CC(=NOC5CCNC5)CCC43C)C1CCC2=O (stereo not drawn)	5.9
CC12CCC3C(CC(=NO)NC4CC(=NOCCN)CCC43C)C1CCC2=O (stereo not drawn)	18
CNCCCON=C1CCC2(C)C(C1)NC(=NO)CC1C3CCC(=O)C3(C)CCC12 (stereo not drawn)	7.5
